## Ab-14 light chain CDR variants: yeast mating affinities

The measurements come from Li et al. 2023 (doi:10.1038/s41467-023-39022-2) through the FLAb antibody collection.

Target peptide (SARS-CoV-2 spike, HR2 region): PDVDLGDISGINAS

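The starting antibody came from a phage panning campaign against this peptide. This is the validation round: designs drawn from the data on random variants, tested in the same kind of assay. Their group label is 14L_En_Gen (En: ensemble of fine-tuned language models; Gen: genetic algorithm). The scFvs were displayed on barcoded MATa yeast, the peptide on MATalpha yeast. Binding brings cells together so that they mate, and sequencing counts the barcode pairs among the diploids. Scores were corrected for input abundance and mapped to Kd with protein pairs of known affinity run in the same pool. The assay was run in six technical replicates.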

Each scFv is VH, three GGGGS repeats, VL, as in the parent Ab-14, and differs from it in the CDRs of the light chain only.
VH: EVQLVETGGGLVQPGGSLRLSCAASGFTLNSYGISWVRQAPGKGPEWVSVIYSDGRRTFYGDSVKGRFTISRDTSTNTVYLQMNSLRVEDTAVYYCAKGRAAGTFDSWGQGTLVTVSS
VL: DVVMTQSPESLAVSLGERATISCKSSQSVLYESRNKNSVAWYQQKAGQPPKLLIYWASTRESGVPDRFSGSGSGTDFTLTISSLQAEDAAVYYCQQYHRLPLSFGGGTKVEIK

Variants are written as CDR1, CDR2 and CDR3 of the light chain (limits as in the source). Parent: KSSQSVLYESRNKNSVA, WASTRES, QQYHRLPLS.
Scale: log10 of Kd in nM, estimated from mating counts; low values are strong binders.
Where no diploid with the target was found in that replicate, the entry reads "ND": below detection, most likely a poor binder, though not proof of it.
The range of this assay differs from that of the first round, and the authors advise against merging the two.
The parent sequence was in this pool as ten entries: three were never detected, three once, and four in most replicates, with averages from 0.34 to 2.37.
Background: pairings of all light chain designs with three empty control strains gave a value in 4% of cases (median 2.64, 5th percentile 1.59). Values in that range, when seen in few replicates, are hard to tell from nonspecific mating. For each scFv, signals with the empty controls are counted beside the result, with their mean in brackets.
The authors averaged sequences with at least three values out of six and counted those with two or fewer as poor binders.

{"CDR-L1": "SLGLVTMLEYANRNNVA", "CDR-L2": "NNSTREA", "CDR-L3": "QQYDRLPLS", "log10 Kd (nM) by replicate": "0.45 / 1.82 / 0.71 / 0.74 / ND / 0.94", "control signals": "0/18"}
{"CDR-L1": "SISGFMKSLSAHINNVA", "CDR-L2": "DMTNRED", "CDR-L3": "QQYDRLPLM", "log10 Kd (nM) by replicate": "0.16 / 0.31 / 0.81 / 0.10 / -0.05 / -0.24", "control signals": "0/18"}
{"CDR-L1": "KIGATLNTLYEKTNNVA", "CDR-L2": "DLVEREN", "CDR-L3": "QQYHRLPLS", "log10 Kd (nM) by replicate": "0.96 / 0.64 / -0.10 / 0.85 / 0.48 / 0.26", "control signals": "0/18"}
{"CDR-L1": "MMSQVWGMGQRHRNNVA", "CDR-L2": "QTSTREE", "CDR-L3": "QQYDRLPLV", "log10 Kd (nM) by replicate": "1.28 / 0.53 / 1.18 / 0.79 / 0.64 / 0.89", "control signals": "0/18"}
{"CDR-L1": "KLSSITGHMQIEKNNVA", "CDR-L2": "EMETREN", "CDR-L3": "QQYDRLPLS", "log10 Kd (nM) by replicate": "0.44 / 0.73 / 0.42 / 0.61 / 0.34 / 0.71", "control signals": "3/18 (2.50)"}
{"CDR-L1": "TISELYNQATGMRDNVA", "CDR-L2": "NNQTRED", "CDR-L3": "QQYHRLPLS", "log10 Kd (nM) by replicate": "1.43 / ND / 1.66 / 1.46 / ND / ND", "control signals": "1/18 (1.22)"}
{"CDR-L1": "KLYSVTGTEKINGNNVA", "CDR-L2": "EMETRER", "CDR-L3": "QQYNRLPLS", "log10 Kd (nM) by replicate": "0.77 / 0.62 / 0.62 / 0.82 / 0.81 / 0.78", "control signals": "0/18"}
{"CDR-L1": "MVYESMDQAMRTHNNIA", "CDR-L2": "DNQTRES", "CDR-L3": "QQYDRLPLS", "log10 Kd (nM) by replicate": "1.60 / ND / 2.92 / 3.61 / ND / 3.19", "control signals": "2/18 (2.19)"}
{"CDR-L1": "QLYEMSYELSGKTHSVA", "CDR-L2": "DNSTRGD", "CDR-L3": "QQYFRLPLQ", "log10 Kd (nM) by replicate": "0.66 / 0.40 / 0.64 / 1.16 / 0.85 / 0.78", "control signals": "1/18 (2.26)"}
{"CDR-L1": "MLSQMWGLGMKASNSVA", "CDR-L2": "QASMRFN", "CDR-L3": "QQYHRLPLI", "log10 Kd (nM) by replicate": "0.96 / 0.88 / 1.55 / 0.68 / 1.37 / 0.99", "control signals": "0/18"}
{"CDR-L1": "HITYGMMVAGRHSKSIA", "CDR-L2": "QAEERAK", "CDR-L3": "QQYDRLPLA", "log10 Kd (nM) by replicate": "0.86 / 0.46 / 0.42 / 0.60 / 0.80 / 0.88", "control signals": "0/18"}
{"CDR-L1": "IVSQLMLWGMKAKNSIA", "CDR-L2": "EAVTRLN", "CDR-L3": "QQYDRLPLI", "log10 Kd (nM) by replicate": "ND / ND / ND / 2.50 / ND / 2.17", "control signals": "2/18 (2.62)"}
{"CDR-L1": "MIHEMMGLMSHKQSSIA", "CDR-L2": "DNSTREE", "CDR-L3": "QQYDRLPLS", "log10 Kd (nM) by replicate": "ND / ND / ND / ND / 2.45 / ND", "control signals": "1/18 (1.88)"}
{"CDR-L1": "KLVQFMNRGTHHTSNIA", "CDR-L2": "DAQNRID", "CDR-L3": "QQYFRLPLA", "log10 Kd (nM) by replicate": "1.06 / ND / ND / ND / 1.91 / 2.49", "control signals": "0/18"}
{"CDR-L1": "VIGEMYGNMVMKHSSIA", "CDR-L2": "DNTTRQD", "CDR-L3": "QQYDRLPLS", "log10 Kd (nM) by replicate": "ND / 1.57 / 2.79 / 2.26 / 2.28 / 1.86", "control signals": "0/18"}
{"CDR-L1": "TLGGAMHSQMHNTNSVA", "CDR-L2": "DLTTRGN", "CDR-L3": "QQYHRLPLS", "log10 Kd (nM) by replicate": "0.99 / 0.62 / 0.64 / 0.62 / 0.93 / 0.81", "control signals": "1/18 (2.99)"}
{"CDR-L1": "TLGGAMHTQMNMKNSVA", "CDR-L2": "DLTTRGN", "CDR-L3": "QQYHRLPLS", "log10 Kd (nM) by replicate": "0.31 / 0.10 / 0.21 / -0.03 / 0.07 / 0.35", "control signals": "1/18 (4.29)"}
{"CDR-L1": "MMSQVWGMGQRHRNNVA", "CDR-L2": "QTSTREE", "CDR-L3": "QQYDHLPLI", "log10 Kd (nM) by replicate": "0.94 / 0.83 / 1.24 / 1.14 / 1.14 / 1.04", "control signals": "1/18 (2.17)"}
{"CDR-L1": "MISQLYNMGQFAINSVA", "CDR-L2": "QAQVRNE", "CDR-L3": "QQYDRLPLI", "log10 Kd (nM) by replicate": "1.82 / 1.94 / 1.97 / 2.02 / 2.09 / 2.72", "control signals": "2/18 (3.06)"}
{"CDR-L1": "TIGQTLMSGVMNRSNVA", "CDR-L2": "EVSERPN", "CDR-L3": "QQYDRLPLA", "log10 Kd (nM) by replicate": "2.08 / 3.54 / 1.91 / 2.62 / 2.67 / ND", "control signals": "1/18 (1.79)"}
{"CDR-L1": "IVSQLMLWGWHAKNSIA", "CDR-L2": "EAQMRLN", "CDR-L3": "QQYDRLPLF", "log10 Kd (nM) by replicate": "ND / 0.23 / 0.59 / 2.52 / 0.53 / 0.68", "control signals": "0/18"}
{"CDR-L1": "QLSSITGHMQIEKNNVA", "CDR-L2": "EMETREN", "CDR-L3": "QQYDRLPLS", "log10 Kd (nM) by replicate": "1.04 / 0.11 / 0.21 / 0.02 / 0.21 / 0.91", "control signals": "0/18"}
{"CDR-L1": "TLYGLSLSMSKNKNSVA", "CDR-L2": "EMTTRED", "CDR-L3": "QQYDRLPLI", "log10 Kd (nM) by replicate": "0.36 / ND / ND / ND / ND / ND", "control signals": "0/18"}
{"CDR-L1": "TITGVMQQMSHSKNNVA", "CDR-L2": "EVSERLD", "CDR-L3": "QQYFRLPLE", "log10 Kd (nM) by replicate": "0.30 / -0.07 / 0.20 / -0.05 / 0.11 / 0.06", "control signals": "1/18 (2.23)"}

Top 3 of the variants detected in all replicates, tightest first:

{"CDR-L1": "TITGVMQQMSHSKNNVA", "CDR-L2": "EVSERLD", "CDR-L3": "QQYFRLPLE", "log10 Kd (nM) by replicate": "0.30 / -0.07 / 0.20 / -0.05 / 0.11 / 0.06", "control signals": "1/18 (2.23)"}
{"CDR-L1": "TLGGAMHTQMNMKNSVA", "CDR-L2": "DLTTRGN", "CDR-L3": "QQYHRLPLS", "log10 Kd (nM) by replicate": "0.31 / 0.10 / 0.21 / -0.03 / 0.07 / 0.35", "control signals": "1/18 (4.29)"}
{"CDR-L1": "SISGFMKSLSAHINNVA", "CDR-L2": "DMTNRED", "CDR-L3": "QQYDRLPLM", "log10 Kd (nM) by replicate": "0.16 / 0.31 / 0.81 / 0.10 / -0.05 / -0.24", "control signals": "0/18"}